The values that follow are results of earlier work, collected in PMC8393936.

In the data set the target is calcineurin catalytic subunit (Homo sapiens) (UniProt Q08209). Nature of the data set: microscale thermophoresis. Background: In MST a laser heats a spot of the sample, and binding alters the fluorescence response.

Broadly, the Kd is the equilibrium constant for the complex coming apart. Consider alpha-synuclein (from UniProt P37840), for which the Kd is 6.9 µM.
